Laboratory results reported in PMC2736829.

Target: recombinant extracellular carbonic anhydrase (CA) domain of human CA IX (aa 120-397) with C-terminal 6xHis-tag (human) (UniProt Q16790)
Test: SEC + other: SDS-PAGE; purified recombinant CA IX domain; Superdex 200 HR 10/30; SDS-PAGE under non-reducing and reducing conditions; covalent dimer

- percent covalent homodimer: 75%
- stoichiometry N: 2
Substance: recombinant extracellular carbonic anhydrase (CA) domain of human CA IX (aa 120-397) with C-terminal 6xHis-tag (from UniProt Q16790 120-397) (domain or fragment)
